# Values quoted from earlier work, collected in US20070237810A1, “Biocidal fibrous and film materials comprising silver and chlorite ions” (published 2007).
# Like-named read-outs stand apart in the source and are kept apart here.
Compound,"E^0NHE (Ag^+oo/Agoo^H2O) (bulk silver, H2O, in presence of the complexing agent)",redox potential E^ONHE (Ag^+n/Agn) (n=1),redox potential E^ONHE (Ag^+n/Agn) (n=10),redox potential E^ONHE (Ag^+n/Agn) (n=600)
O=S(O)(O)=S,+0.010,,,
silver ion,,−1.6 V,0 V,+0.799 V
